Measured values reported in US9656017B2, “Infusion delivery devices and methods” (priority 2014, dated 2017).

What was measured:
[1] = cited from earlier work
[2] = 24-hour plasma profiles of endogenous insulin and amylin in healthy adults, basal/bolus AUC analysis; type: in vivo, human; conditions: endogenous hormone, based upon AUCs, unadjusted
Source text: This difference in bolus/basal ratios was quantified by estimating the AUCs of the basal and bolus components, which would reflect the 24-hour hormone exposures attributable to these components. FIG. 6 and FIG. 7 show this basal/bolus allocation for amylin and insulin when the lowest observed levels of endogenous hormone are used as the upper boundary of the basal area.
Comparing AUCs results in the discovery that there is a striking difference between hormones with respect to the importance of bolus exposure compared to basal exposure, as summarized in Table 1. Measured as a ratio of bolus-to-basal exposure, the insulin bolus component is about three times as important as that of amylin. Measured as percentages of total daily hormone exposures, the “pancreatic insulin pump” secretes about twice as much insulin during mealtime boluses compared to basal, whereas the “pancreatic amylin pump” is set to the reverse ratio. See the example in Table 1.
Note that these calculations are based upon the specific clinical study shown in FIG. 5, and so the quantities presented here are used to illustrate the difference between insulin and amylin plasma levels. […]
It is noted with regard to Table 1 that both the plasma insulin and amylin were measured with immunometric assays that are normally highly specific but are subject to cross reactions with other analytes that contain both binding sites. […]

[3] = subcutaneous doses 30 μg, 60 μg and 90 μg (FIG. 2); cited from earlier work

Row | Compound | Bioavailability ([1]; subcutaneous (SC) injections) [%] | Basal Level [2] [pM] | SC half-life ([1]; subcutaneous) [min] | clearance from plasma after injection [3]
1 | CC[C@H](C)[C@H](NC(=O)[C@H](C)NC(=O)CNC(=O)[C@H](Cc1ccccc1)NC(=O)[C@H](CC(N)=O)NC(=O)[C@H](CC(N)=O)NC(=O)[C@H](CO)NC(=O)[C@H](CO)NC(=O)[C@H](Cc1c[nH]cn1)NC(=O)[C@@H](NC(=O)[C@H](CC(C)C)NC(=O)[C@H](Cc1ccccc1)NC(=O)[C@H](CC(N)=O)NC(=O)[C@H](C)NC(=O)[C@H](CC(C)C)NC(=O)[C@H](CCCNC(=N)N)NC(=O)[C@H](CCC(N)=O)NC(=O)[C@@H](NC(=O)[C@H](C)NC(=O)[C@@H]1CSSC[C@H](NC(=O)[C@@H](N)CCCCN)C(=O)N[C@@H](CC(N)=O)C(=O)N[C@@H]([C@@H](C)O)C(=O)N[C@@H](C)C(=O)N[C@@H]([C@@H](C)O)C(=O)N1)[C@@H](C)O)C(C)C)C(=O)N[C@@H](CC(C)C)C(=O)N[C@@H](CO)C(=O)N[C@@H](CO)C(=O)N[C@H](C(=O)N[C@@H](CC(N)=O)C(=O)N[C@H](C(=O)NCC(=O)N[C@@H](CO)C(=O)N[C@@H](CC(N)=O)C(=O)N[C@H](C(=O)N[C@@H](Cc1ccc(O)cc1)C(N)=O)[C@@H](C)O)C(C)C)[C@@H](C)O [Amylin] | 35 | 9.3 |  | 
2 | CC[C@H](C)[C@H](NC(=O)[C@@H]1CCCN1C(=O)CNC(=O)[C@H](Cc1ccccc1)NC(=O)[C@H](CC(N)=O)NC(=O)[C@H](CC(N)=O)NC(=O)[C@H](CO)NC(=O)[C@H](CO)NC(=O)[C@H](Cc1c[nH]cn1)NC(=O)[C@@H](NC(=O)[C@H](CC(C)C)NC(=O)[C@H](Cc1ccccc1)NC(=O)[C@H](CC(N)=O)NC(=O)[C@H](C)NC(=O)[C@H](CC(C)C)NC(=O)[C@H](CCCNC(=N)N)NC(=O)[C@H](CCC(N)=O)NC(=O)[C@@H](NC(=O)[C@H](C)NC(=O)[C@@H]1CSSC[C@H](NC(=O)[C@@H](N)CCCCN)C(=O)N[C@@H](CC(N)=O)C(=O)N[C@@H]([C@@H](C)O)C(=O)N[C@@H](C)C(=O)N[C@@H]([C@@H](C)O)C(=O)N1)[C@@H](C)O)C(C)C)C(=O)N[C@@H](CC(C)C)C(=O)N1CCC[C@H]1C(=O)N1CCC[C@H]1C(=O)N[C@H](C(=O)N[C@@H](CC(N)=O)C(=O)N[C@H](C(=O)NCC(=O)N[C@@H](CO)C(=O)N[C@@H](CC(N)=O)C(=O)N[C@H](C(=O)N[C@@H](Cc1ccc(O)cc1)C(N)=O)[C@@H](C)O)C(C)C)[C@@H](C)O [pramlintide, 25,28,29Pro-h-amylin] |  |  | 48 | largely cleared plasma within three hours
